Measurements: US20120178815A1, “Compositions of (-)-E-10-OH-NT and Methods for Their Synthesis and Use” (Adolor Corporation, priority 2007, published 2012)

Chains of the proteins cited; added tags and fusions are not shown.
UniProt P31652, whole entry: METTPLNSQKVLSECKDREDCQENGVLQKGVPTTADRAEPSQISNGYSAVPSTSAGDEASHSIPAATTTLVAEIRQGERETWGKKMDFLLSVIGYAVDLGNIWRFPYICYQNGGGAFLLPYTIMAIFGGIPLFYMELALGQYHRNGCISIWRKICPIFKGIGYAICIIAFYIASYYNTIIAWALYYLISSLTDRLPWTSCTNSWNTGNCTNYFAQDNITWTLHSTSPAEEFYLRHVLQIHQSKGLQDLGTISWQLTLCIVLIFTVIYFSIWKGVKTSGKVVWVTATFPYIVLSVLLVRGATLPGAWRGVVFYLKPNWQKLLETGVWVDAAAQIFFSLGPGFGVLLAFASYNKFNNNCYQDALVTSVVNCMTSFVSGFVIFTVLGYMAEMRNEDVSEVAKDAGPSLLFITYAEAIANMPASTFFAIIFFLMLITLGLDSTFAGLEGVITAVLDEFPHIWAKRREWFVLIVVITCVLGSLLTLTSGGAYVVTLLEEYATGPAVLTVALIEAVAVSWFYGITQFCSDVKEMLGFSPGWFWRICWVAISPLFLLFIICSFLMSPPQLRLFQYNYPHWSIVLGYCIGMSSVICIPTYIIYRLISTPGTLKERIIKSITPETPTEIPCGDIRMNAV

Biological target: T1, 5HT uptake, rat brain synaptosomes (Rattus norvegicus, UniProt P31652)
T1 construct: into rat brain synaptosomes; from tissue; host or cells: rat brain synaptosomes
Assay: Inhibition of [3H]-5HT uptake into synaptosomes
Format: biochemical

CNCCC=C1c2ccccc2CCc2ccccc21 [NT, nortriptyline, reference compound]
pIC50: 7.00

pIC50: −log10 of the molar value.
